Laboratory results taken from patent US6540999B1, “Immunomodulatory methods using Lewisx oligosacchardies” (President and Fellows of Harvard College, priority 1996, dated 2003).

Legend:
Human PBMCs = test: Proliferation of human PBMCs from allergic or cancer patients (3H-thymidine uptake); type: cell-based; conditions: 3H-thymidine uptake at 90 hours; LPS 20 μg/ml, HSA and conjugates 100 μg/ml
Excerpt: Human PBMCs were obtained from: 1) an individual who was allergic to pollen; 2) an individual suffering from lung carcinoma and 3) an individual suffering from colon carcinoma.

IgE response = test: Serum IgE titers after intranasal administration, HSA as antigen; type: in vivo; conditions: mice, FIG. 4B
Granuloma macrophages = type: cell-based, C57BL/6 mice

human serum albumin [HSA]
CPM, COLON CARCINOMA (Human PBMCs): 141 CPM
CPM, LUNG CARCINOMA (Human PBMCs): 152 CPM
CPM, POLLEN ALLERGIC (Human PBMCs): 460 CPM
HSA-specific IgE production (in words) (IgE response): virtually no specific IgE production
IL-10 LEVEL 24 HR (Granuloma macrophages): 1247 pg/mL
IL-10 LEVEL 48 HR (Granuloma macrophages): 1214 pg/mL
IL-10 LEVEL 72 HR (Granuloma macrophages): 1089 pg/mL
